From patent US11208376B2, “Use of a metal supplement in animal feed” (Nouryon Chemicals International B.V., priority 2009, dated 2021)

Legend:
[1] = Precipitation test of copper sources with two-fold molar excess of phytic acid, soluble Cu by FAAS; type: physicochemical; settings: for Soluble Cu(II) after subjecting complexed or chelated Cu(II) to a two-fold molar excess of phytic acid: one day at ambient temperature
Procedure: The following 3 concentrations of the final metal concentration were tested, i.e. high (H) at 25 mmol/kg, medium (M) at 5 mmol/kg, and low (L) at 0.5 mmol/kg. For each concentration and pH a separate phytic acid stock solution was prepared by diluting the calculated amount of phytic acid with de-mineralized water, setting the pH with diluted NH4OH solutions, and filling up with demineralized water up to the calculated amount. […] The pH was increased with NH4OH 2.5% up to pH 4.17. • Cu-GLDA-Na2 • 0.125 mol/kg, 12.608 g CuSO4.5H2O, and 0.1275 mol/kg, 36.619 g GL-45-SLA. […] The pH was adjusted to 4.97 with 0.5 M H2SO4. Then an equal number of 0.0125 mol/kg solutions were prepared by diluting the above solutions with demineralized water. […] On all 4 zinc-containing and 3 copper-containing solutions in total 6 precipitation tests were carried out, i.e. at levels H, M, and L and for each level at pH=4 and at pH=6. These tests were marked H4, H6, M4, M6, L4, and L6, respectively. In total 42 samples were obtained in this way. After standing for one day the precipitate was removed and the mother liquor was analyzed for its zinc or copper content by FAAS (Flame Atomic Absorption Spectroscopy). […] The total weight was exactly determined again. The 50 ml test tubes were filled according to Table 1 below. [table]

[2] = Precipitation test of zinc sources with two-fold molar excess of phytic acid, soluble Zn by FAAS; type: physicochemical; settings: for Soluble Zn(II) after subjecting complexed or chelated Zn(II) to a two-fold molar excess of phytic acid: one day at ambient temperature
Procedure: The following 3 concentrations of the final metal concentration were tested, i.e. high (H) at 25 mmol/kg, medium (M) at 5 mmol/kg, and low (L) at 0.5 mmol/kg. For each concentration and pH a separate phytic acid stock solution was prepared by diluting the calculated amount of phytic acid with de-mineralized water, setting the pH with diluted NH4OH solutions, and filling up with demineralized water up to the calculated amount. […] The pH was not adjusted any further. Then an equal number of 0.0125 mol/kg solutions were prepared by diluting the above solutions with demineralized water. […] On all 4 zinc-containing and 3 copper-containing solutions in total 6 precipitation tests were carried out, i.e. at levels H, M, and L and for each level at pH=4 and at pH=6. These tests were marked H4, H6, M4, M6, L4, and L6, respectively. In total 42 samples were obtained in this way. After standing for one day the precipitate was removed and the mother liquor was analyzed for its zinc or copper content by FAAS (Flame Atomic Absorption Spectroscopy). […] The total weight was exactly determined again. The 50 ml test tubes were filled according to Table 1 below.

[3] = H4: pH 4, metal 25 mmol/kg, phytic acid 50 mmol/kg
[4] = H6: pH 6, metal 25 mmol/kg, phytic acid 50 mmol/kg
[5] = L4: pH 4, metal 0.5 mmol/kg, phytic acid 1 mmol/kg
[6] = L6: pH 6, metal 0.5 mmol/kg, phytic acid 1 mmol/kg
[7] = M4: pH 4, metal 5 mmol/kg, phytic acid 10 mmol/kg
[8] = M6: pH 6, metal 5 mmol/kg, phytic acid 10 mmol/kg
[9] = levels H, M, L, result in words

Substance	Soluble Cu(II) after subjecting complexed or chelated Cu(II) to a two-fold molar excess of phytic acid [1, 3]	Soluble Cu(II) after subjecting complexed or chelated Cu(II) to a two-fold molar excess of phytic acid [1, 4]	Soluble Cu(II) after subjecting complexed or chelated Cu(II) to a two-fold molar excess of phytic acid [1, 5]	Soluble Cu(II) after subjecting complexed or chelated Cu(II) to a two-fold molar excess of phytic acid [1, 6]	Soluble Cu(II) after subjecting complexed or chelated Cu(II) to a two-fold molar excess of phytic acid [1, 7]	Soluble Cu(II) after subjecting complexed or chelated Cu(II) to a two-fold molar excess of phytic acid [1, 8]	Appearance (clear solution or precipitate) of copper source combined with phytic acid [1, 9]	Soluble Zn(II) after subjecting complexed or chelated Zn(II) to a two-fold molar excess of phytic acid [2, 3]	Soluble Zn(II) after subjecting complexed or chelated Zn(II) to a two-fold molar excess of phytic acid [2, 4]	Soluble Zn(II) after subjecting complexed or chelated Zn(II) to a two-fold molar excess of phytic acid [2, 5]	Soluble Zn(II) after subjecting complexed or chelated Zn(II) to a two-fold molar excess of phytic acid [2, 6]	Soluble Zn(II) after subjecting complexed or chelated Zn(II) to a two-fold molar excess of phytic acid [2, 7]	Soluble Zn(II) after subjecting complexed or chelated Zn(II) to a two-fold molar excess of phytic acid [2, 8]	Appearance (clear solution or precipitate) of zinc source combined with phytic acid [2, 9]
Cu(Lysine)2	103 % (mol/mol)	102 % (mol/mol)	99 % (mol/mol)	97 % (mol/mol)	98 % (mol/mol)	98 % (mol/mol)	clear solution							
Zn(Lysine)2								22* % (mol/mol)	38* % (mol/mol)	95 % (mol/mol)	37 % (mol/mol)	49* % (mol/mol)	14* % (mol/mol)	immediately a precipitate was formed

Marks after values point to notes of the source that are not given here.
